Source: paper PMC5452965 (PeerJ, 2017)

By UniProt entry, the sequences of proteins in these tests, tags left out.
UniProt P02550, whole entry: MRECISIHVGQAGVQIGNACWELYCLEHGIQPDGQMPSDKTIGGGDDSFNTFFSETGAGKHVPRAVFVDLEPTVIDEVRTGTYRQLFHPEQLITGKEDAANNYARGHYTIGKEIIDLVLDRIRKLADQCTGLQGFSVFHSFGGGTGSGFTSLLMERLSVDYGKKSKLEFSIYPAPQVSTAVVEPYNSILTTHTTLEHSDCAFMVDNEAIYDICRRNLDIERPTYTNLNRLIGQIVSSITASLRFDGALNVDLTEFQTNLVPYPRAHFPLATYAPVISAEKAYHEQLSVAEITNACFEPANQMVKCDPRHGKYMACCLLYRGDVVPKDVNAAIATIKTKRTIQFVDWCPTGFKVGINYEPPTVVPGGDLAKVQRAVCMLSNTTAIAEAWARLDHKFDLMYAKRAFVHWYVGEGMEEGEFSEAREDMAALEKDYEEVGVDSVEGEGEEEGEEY
UniProt P02554, whole entry: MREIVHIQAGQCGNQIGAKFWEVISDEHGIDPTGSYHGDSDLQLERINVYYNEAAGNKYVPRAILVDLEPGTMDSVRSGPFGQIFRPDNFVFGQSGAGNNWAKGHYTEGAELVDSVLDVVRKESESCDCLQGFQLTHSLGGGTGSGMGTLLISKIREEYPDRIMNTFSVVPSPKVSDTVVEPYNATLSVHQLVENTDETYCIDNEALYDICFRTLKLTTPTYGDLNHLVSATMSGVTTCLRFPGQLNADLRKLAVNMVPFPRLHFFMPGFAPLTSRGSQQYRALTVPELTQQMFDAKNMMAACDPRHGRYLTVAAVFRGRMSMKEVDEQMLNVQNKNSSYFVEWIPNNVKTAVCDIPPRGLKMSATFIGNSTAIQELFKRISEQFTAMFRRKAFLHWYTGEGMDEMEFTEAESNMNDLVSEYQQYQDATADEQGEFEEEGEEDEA

Biological target: T1, Porcine brain tubulin plus MAPs (Sus scrofa, UniProt P02550+P02554)
T1 construct: Porcine brain tubulin plus MAPs was prepared by two cycles of polymerization and depolymerization; from tissue; host or cells: porcine brain
Experiment: In vitro tubulin polymerization assay
Type: biochemical
Settings: read-out: IC50, inhibition of tubulin polymerization in vitro; 5.6 mg/ml tubulin-MAPs, 37°C, 40 min
Experimental: Porcine brain tubulin plus MAPs was prepared by two cycles of polymerization and depolymerization according to a standard protocol ([Gell et al., 2011]). In-vitro tubulin polymerization assays were carried out in PEM buffer (100 mM PIPES, 2 mM EGTA, 0.1 mM EDTA, 3 mM MgCl2, 1 mM ATP and 1 mM GTP, pH 6.85) by mixing 5.6 mg/ml tubulin-MAPs with different concentrations of cucurbitacins in 96-well plates at 37°C for 40 min. The rate and extent of the polymerization reaction were monitored by light scattering at 360 nm using Tecan infinite M200 Pro.
The IC50 and IC80 were determined as the amount of the substances needed to reduce 50% or 80% cell viability/tubulin polymerization and calculated from concentration–response curves by Sigmaplot software (Systat Software Inc., San Jose, USA). All experiments were done in triplicate, repeated three times. Data are presented as mean ± standard deviation (SD). Statistical comparison between controls and different treatments were performed by an unpaired student’s t test using Microsoft excel 2013 (Microsoft Corporation, Washington, USA). Significance was considered at p < 0.05.

cucurbitacin B
IC50: > 1000 µM
